These results are taken from ChEMBL document CHEMBL5316271, “Microtubule-Stabilizing 1,2,4-Triazolo[1,5-a]pyrimidines as Candidate Therapeutics for Neurodegenerative Disease: Matched Molecular Pair Analyses and Computational Studies Reveal New Structure-Activity Insights” (J Med Chem, 2023).

Amino acid sequences for entries named in this document (tags omitted). A change or cut given only in a name is not applied to a line headed by its entry.
UniProt P68371: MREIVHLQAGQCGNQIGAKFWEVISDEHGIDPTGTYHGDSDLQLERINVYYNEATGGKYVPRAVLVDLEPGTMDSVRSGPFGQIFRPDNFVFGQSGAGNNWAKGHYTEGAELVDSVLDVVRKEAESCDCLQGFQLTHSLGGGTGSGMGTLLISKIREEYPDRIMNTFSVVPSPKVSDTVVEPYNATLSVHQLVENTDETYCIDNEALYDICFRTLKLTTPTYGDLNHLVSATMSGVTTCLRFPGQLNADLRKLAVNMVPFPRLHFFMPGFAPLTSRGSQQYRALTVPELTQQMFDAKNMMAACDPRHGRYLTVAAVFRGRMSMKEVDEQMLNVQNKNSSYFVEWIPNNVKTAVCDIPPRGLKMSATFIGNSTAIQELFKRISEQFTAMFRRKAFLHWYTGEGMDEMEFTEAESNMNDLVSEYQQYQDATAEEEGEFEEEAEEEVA
UniProt Q9H4B7: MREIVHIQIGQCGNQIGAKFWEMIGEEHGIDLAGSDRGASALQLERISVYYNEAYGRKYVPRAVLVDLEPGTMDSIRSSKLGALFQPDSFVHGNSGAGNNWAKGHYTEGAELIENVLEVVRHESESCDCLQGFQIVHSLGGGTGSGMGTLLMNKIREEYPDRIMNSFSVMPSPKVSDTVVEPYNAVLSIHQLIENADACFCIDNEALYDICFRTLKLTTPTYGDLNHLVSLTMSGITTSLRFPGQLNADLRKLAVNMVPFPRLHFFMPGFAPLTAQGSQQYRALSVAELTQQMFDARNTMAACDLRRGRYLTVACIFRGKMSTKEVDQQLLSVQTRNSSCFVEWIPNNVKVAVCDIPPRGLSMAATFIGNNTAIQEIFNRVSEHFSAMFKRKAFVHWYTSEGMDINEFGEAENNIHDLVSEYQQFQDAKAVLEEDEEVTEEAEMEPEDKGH
UniProt P68366: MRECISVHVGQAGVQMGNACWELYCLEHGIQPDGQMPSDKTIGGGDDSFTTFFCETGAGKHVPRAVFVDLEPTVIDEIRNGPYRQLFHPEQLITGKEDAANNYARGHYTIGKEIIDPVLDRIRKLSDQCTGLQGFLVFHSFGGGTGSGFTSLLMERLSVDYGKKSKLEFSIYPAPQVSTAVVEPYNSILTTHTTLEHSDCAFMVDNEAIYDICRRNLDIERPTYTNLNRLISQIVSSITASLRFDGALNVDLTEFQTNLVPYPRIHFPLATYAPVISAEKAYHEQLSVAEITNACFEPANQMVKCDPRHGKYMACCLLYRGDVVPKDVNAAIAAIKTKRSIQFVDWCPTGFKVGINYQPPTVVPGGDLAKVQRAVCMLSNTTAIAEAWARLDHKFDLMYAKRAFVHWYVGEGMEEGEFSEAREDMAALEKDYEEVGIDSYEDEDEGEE
UniProt Q13509: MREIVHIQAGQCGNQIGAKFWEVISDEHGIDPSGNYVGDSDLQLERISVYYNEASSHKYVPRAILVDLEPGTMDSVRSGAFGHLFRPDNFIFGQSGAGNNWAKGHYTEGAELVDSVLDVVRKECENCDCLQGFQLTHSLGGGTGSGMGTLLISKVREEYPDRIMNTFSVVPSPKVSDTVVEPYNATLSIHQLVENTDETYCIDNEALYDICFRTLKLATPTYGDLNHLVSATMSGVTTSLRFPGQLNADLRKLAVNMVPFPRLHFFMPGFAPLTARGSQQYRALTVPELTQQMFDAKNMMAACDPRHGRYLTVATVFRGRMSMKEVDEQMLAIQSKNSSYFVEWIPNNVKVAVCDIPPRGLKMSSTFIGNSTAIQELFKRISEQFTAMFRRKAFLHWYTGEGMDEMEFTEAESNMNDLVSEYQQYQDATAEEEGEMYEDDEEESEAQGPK
UniProt Q71U36: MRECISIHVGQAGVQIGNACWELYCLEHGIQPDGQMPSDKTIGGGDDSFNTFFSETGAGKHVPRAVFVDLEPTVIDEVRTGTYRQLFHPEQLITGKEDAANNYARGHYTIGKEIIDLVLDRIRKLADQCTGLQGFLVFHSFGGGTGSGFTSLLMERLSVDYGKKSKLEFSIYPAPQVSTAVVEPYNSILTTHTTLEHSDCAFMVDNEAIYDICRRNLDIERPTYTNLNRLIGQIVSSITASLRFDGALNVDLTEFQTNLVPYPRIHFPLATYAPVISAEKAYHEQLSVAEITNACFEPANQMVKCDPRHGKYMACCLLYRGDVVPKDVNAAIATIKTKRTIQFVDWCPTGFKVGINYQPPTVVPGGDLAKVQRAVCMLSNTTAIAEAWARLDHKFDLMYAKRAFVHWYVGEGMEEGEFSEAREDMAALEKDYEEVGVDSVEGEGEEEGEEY
UniProt P04350: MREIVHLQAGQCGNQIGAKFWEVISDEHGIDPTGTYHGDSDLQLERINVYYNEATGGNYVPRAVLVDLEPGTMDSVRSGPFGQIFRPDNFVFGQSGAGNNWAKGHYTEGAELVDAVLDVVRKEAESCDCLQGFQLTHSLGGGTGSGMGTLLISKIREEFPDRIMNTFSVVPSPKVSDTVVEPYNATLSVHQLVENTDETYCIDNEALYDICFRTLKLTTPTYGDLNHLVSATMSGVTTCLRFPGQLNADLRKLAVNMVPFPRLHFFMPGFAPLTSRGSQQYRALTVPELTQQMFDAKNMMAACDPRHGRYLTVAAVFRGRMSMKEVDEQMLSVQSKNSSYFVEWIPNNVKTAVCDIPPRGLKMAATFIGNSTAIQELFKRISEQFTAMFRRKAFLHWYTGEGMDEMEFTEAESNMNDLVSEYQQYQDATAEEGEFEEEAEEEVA
UniProt Q3ZCM7: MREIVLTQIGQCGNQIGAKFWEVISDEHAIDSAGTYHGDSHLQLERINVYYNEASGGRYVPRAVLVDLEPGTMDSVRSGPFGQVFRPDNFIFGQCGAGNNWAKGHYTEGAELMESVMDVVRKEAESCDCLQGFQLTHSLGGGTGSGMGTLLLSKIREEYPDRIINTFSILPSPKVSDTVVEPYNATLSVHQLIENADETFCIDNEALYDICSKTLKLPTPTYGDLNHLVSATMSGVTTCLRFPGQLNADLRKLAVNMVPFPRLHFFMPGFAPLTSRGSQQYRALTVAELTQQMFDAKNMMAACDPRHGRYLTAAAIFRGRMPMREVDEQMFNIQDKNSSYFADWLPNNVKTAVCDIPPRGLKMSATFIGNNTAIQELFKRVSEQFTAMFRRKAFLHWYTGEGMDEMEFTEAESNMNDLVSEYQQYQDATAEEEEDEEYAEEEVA
UniProt P07437: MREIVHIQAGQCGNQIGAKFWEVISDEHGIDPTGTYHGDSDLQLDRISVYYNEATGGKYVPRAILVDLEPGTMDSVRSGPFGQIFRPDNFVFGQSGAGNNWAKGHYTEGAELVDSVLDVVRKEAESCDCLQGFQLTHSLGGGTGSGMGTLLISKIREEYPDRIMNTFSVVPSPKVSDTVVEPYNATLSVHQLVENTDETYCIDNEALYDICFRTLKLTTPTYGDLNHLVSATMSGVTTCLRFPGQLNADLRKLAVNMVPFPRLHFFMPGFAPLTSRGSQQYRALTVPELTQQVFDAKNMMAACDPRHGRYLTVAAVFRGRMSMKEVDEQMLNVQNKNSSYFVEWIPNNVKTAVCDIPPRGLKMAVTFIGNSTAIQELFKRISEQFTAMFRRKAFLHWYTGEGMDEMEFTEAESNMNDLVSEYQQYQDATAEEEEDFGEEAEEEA
UniProt P68363: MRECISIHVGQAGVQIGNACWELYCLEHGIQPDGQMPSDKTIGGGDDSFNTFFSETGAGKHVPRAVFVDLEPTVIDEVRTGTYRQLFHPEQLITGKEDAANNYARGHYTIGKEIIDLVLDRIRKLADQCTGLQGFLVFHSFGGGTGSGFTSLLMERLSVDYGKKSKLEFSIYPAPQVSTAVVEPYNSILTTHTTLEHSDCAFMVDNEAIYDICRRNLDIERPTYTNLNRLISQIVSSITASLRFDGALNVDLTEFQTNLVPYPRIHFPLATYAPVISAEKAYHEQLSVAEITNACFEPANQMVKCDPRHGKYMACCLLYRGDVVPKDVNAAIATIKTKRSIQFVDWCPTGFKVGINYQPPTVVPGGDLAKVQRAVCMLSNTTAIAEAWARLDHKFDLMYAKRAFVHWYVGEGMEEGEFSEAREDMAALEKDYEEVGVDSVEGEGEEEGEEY
UniProt Q9BQE3: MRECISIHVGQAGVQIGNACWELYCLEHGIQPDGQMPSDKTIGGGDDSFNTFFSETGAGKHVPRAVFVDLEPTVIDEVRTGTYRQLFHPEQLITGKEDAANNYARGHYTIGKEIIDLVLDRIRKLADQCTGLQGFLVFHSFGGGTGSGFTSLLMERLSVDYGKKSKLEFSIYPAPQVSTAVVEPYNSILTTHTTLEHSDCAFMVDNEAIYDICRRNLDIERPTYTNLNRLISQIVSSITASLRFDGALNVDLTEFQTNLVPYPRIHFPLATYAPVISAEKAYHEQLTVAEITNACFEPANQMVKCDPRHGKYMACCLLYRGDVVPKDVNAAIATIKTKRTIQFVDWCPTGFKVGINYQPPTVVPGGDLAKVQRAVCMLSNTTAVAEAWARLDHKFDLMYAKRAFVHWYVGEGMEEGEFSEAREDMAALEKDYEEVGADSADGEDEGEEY
UniProt Q6PEY2: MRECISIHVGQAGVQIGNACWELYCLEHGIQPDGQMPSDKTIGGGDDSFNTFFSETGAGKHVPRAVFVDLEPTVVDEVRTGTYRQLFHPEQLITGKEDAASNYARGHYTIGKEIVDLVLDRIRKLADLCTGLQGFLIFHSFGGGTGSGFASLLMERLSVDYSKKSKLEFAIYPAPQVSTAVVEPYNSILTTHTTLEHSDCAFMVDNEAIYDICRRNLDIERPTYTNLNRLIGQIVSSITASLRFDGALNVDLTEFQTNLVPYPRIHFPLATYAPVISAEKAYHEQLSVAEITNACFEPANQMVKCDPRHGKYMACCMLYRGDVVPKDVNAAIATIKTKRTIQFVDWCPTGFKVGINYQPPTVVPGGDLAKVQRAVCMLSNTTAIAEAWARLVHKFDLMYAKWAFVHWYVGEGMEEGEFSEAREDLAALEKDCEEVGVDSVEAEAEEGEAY
UniProt Q13885: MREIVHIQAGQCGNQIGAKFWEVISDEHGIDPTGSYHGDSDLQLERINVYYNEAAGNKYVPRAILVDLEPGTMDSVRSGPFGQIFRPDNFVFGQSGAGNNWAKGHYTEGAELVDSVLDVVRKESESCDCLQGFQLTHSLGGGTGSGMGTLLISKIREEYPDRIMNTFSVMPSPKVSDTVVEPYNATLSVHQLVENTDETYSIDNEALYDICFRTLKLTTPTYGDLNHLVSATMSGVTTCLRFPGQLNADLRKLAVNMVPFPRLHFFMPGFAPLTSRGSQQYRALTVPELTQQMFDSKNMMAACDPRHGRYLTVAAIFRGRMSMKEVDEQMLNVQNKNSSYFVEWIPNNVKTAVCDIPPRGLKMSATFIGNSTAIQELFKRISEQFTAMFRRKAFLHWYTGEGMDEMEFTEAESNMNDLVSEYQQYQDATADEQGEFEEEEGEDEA
UniProt Q9BVA1: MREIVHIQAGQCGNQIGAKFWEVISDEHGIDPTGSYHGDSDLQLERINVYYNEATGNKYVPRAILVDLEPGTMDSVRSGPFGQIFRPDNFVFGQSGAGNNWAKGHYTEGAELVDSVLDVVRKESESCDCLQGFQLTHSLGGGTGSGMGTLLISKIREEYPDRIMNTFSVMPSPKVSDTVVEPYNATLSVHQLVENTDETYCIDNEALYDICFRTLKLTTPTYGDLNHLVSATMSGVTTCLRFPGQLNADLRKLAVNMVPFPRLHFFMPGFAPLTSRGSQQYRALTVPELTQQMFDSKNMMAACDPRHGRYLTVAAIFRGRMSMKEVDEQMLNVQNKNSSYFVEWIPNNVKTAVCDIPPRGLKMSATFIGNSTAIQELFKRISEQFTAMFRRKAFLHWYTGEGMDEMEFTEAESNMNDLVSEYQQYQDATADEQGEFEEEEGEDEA
UniProt Q9BUF5: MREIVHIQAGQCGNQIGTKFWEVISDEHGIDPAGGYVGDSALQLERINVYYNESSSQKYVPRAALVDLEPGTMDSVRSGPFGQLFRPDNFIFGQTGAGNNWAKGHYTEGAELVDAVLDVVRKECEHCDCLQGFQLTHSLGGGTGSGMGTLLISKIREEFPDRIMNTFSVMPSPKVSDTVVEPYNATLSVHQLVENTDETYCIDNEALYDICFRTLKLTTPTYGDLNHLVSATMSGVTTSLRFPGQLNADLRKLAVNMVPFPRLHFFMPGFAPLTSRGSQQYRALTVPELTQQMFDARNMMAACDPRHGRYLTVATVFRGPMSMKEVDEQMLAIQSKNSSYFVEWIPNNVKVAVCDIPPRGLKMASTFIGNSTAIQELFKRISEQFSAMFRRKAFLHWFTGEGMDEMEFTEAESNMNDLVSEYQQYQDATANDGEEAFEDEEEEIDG

The structures appear in SMILES notation.

What all share (assay type): cell-based
In assay [1] the target is T1, Tubulin (Homo sapiens) (UniProt P68371+Q9H4B7+P0DPH7+P68366+Q13509+Q71U36+P04350+Q3ZCM7+P07437+P68363+Q9BQE3+Q6PEY2+Q13885+Q9BVA1+Q9BUF5). The experiment in a line: Induction of microtubule stabilization in human HEK293-A cells assessed as fold change in cellular acetylated alpha-tubulin level at 1 uM incubated for 4 hrs by ELISA relative to cevipabulin. The essentials: (§1)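 QBI293 cells (2 × 10^5/well) treated 4 h with compound or DMSO vehicle; AcTub in whole-cell extracts measured by ELISA with BCA protein normalization. Fold-change in AcTub relative to DMSO then expressed against change produced by positive-control reference compound at 100 nM run alongside, to correct day-to-day responsiveness.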
(In general: In an ELISA, binding on a coated surface is turned into a signal by an enzyme label.)

Assay [2] addresses T1, Tubulin (Homo sapiens). Briefly: Induction of microtubule stabilization in human HEK293-A cells assessed as fold change as increase in cellular acetylated alpha-tubulin level at 10 uM incubated for 4 hrs by ELISA relative to control. The essentials: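 QBI293 cells (2 × 10^5/well) plated overnight, then fresh medium with compound (from 4–20 mM DMSO stocks) or vehicle (0.25–0.3% DMSO) for 4 h. Whole-cell extracts normalized by BCA protein; AcTub and total α-tubulin quantified by ELISA, as fold-change versus DMSO cells; one-way ANOVA.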

For assay [3], the target named is T1, Tubulin (Homo sapiens). The experiment in a line: Induction of microtubule stabilization in human HEK293-A cells assessed as fold change in cellular acetylated alpha-tubulin level at 10 uM incubated for 4 hrs by ELISA relative to cevipabulin. A digest of the protocol:
as §1

Consider `CC(C)[C@@H](C)Nc1c(-c2c(F)cc(OCCCN(C)C)cc2F)c(Cl)nc2ncnn12`, for which, at Tubulin (Homo sapiens) [1], the fold change (FC) amounted to 11.3. On to `C[C@H](Nc1c(-c2c(F)cc(F)cc2F)c(Cl)nc2ncnn12)C(C)(C)C`, for which the fold change (FC) on Tubulin (Homo sapiens) [2] came to 3.36; on Tubulin (Homo sapiens) [3], 0.43.
